# Target: Egl nine homolog 1 (Homo sapiens, UniProt Q9GZT9)
# Amino acid sequences for entries named in this document (tags omitted). A change or cut given only in a name is not applied to a line headed by its entry.
# UniProt Q9GZT9: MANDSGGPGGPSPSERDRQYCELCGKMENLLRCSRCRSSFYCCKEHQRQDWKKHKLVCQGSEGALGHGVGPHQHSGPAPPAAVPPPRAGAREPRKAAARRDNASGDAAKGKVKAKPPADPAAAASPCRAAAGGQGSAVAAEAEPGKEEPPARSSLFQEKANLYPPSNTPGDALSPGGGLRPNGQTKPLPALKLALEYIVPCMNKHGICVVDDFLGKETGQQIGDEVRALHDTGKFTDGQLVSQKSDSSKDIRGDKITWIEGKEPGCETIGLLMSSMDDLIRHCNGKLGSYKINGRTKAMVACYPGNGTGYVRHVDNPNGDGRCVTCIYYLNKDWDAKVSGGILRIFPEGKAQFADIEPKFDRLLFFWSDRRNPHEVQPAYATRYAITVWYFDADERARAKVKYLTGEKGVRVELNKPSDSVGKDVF
# Test: Inhibition of HIF-PHD2 (unknown origin) by fluorescence polarization assay
smiles,measurement,value
O=C(O)CNC(=O)c1ncc(-c2cccc(Cl)c2)cc1O,IC50,13.7 µM

# — ChEMBL document CHEMBL4145565, “Prolyl Hydroxylase Inhibitors: A Breakthrough in the Therapy of Anemia Associated with Chronic Diseases” (J Med Chem, 2018)
